How the values were obtained:
[1] = type: physicochemical; conditions: simulated rain solution saturated with the pigment; electrolyte pH about 4.2
[2] = water

Row | Substance | pH [1] | Solubility [2] | Solubility description [2]
1 | Zinc Quinizarinate Ethylenediamine [Compound 22] | 7.75 |  | 
2 | Zinc Dibasate Diethylamine [Compound 9] |  | .02 | PINS (key: PINS: practically insoluble (<.1 g/100cc H2 O); SS: slightly soluble (.1 to 1 g/100cc H2 O); MS: moderately soluble)

Reference: patent US4626283A, “Corrosion and marine growth inhibiting compositions” (Engelhard Corporation, priority 1985, dated 1986)
